Laboratory results as given in PMC3527569, “Anti-Inflammatory and Vasoprotective Activity of a Retroviral-Derived Peptide, Homologous to Human Endogenous Retroviruses: Endothelial Cell Effects” (PLoS ONE, 2012).

Test system: carrageenan-induced DIC
Assay: Mouse carrageenan-induced DIC model, lethality
Type: in vivo, mouse (CD-1)
Conditions: some protective activity; data not shown
Protocol: Groups of 10 male CD-1 mice were injected i.p. with 0.25 ml of either vehicle (PBS) or peptide in vehicle at varying times prior to the i.p. injection of 1.0 ml of carrageenan (0.45% [w/v] in PBS; Sigma). In experiments where serum cytokine levels were determined, groups of 5 mice were euthanized at 1-, 2-, 4-, 8-, and 24-h post injection of carrageenan, blood collected by cardiac puncture into heparinized syringes, and the resultant plasma stored at −80°C until assayed by ELISA. […] At 1-, 2-, 4-, and 24-h post injection of carrageenan, five mice from each group were euthanized and heparinized blood samples collected from the heart using heparinized syringes for subsequent determinations of WBC (white blood cell) counts, RBC (red blood cell) counts, or PLT (platelet) counts.

SMILES: CC(=O)CCCCn1c(=O)c2c(ncn2C)n(C)c1=O [Pentoxifylline]
- protection in DIC model: ≤ 50%
